# Ab-14 heavy chain CDR variants: yeast mating affinities

Target: peptide PDVDLGDISGINAS, taken from heptad repeat 2 (HR2) of SARS-CoV-2 spike.

The variants keep the light chain, the linker and the frameworks of Ab-14 (scFv order VH, the linker GGGGSGGGGSGGGGS, VL).
VH: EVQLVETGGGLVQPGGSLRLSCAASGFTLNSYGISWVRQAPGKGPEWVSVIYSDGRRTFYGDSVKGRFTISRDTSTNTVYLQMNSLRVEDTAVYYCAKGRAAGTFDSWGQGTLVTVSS
VL: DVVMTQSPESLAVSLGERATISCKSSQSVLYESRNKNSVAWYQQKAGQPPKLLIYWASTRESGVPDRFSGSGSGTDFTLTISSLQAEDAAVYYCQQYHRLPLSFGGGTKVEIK

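The variants were designed computationally from a first round of random CDR variants and then made and measured. Group labels follow the data file (Ctrl: baseline library sampled from a position-specific scoring matrix, with some repeated check sequences; Rand: our label for a block that the file lists under HC and that is probably the random mutants of the ten best first-round binders; En: ensemble of fine-tuned language models; GP: Gaussian process model; GPLM: also part of the Gaussian process libraries; HC: hill climbing; Gen: genetic algorithm; Gibbs: Gibbs sampling; a sequence that several methods proposed may carry one label only). Affinity was read by AlphaSeq, a pooled yeast mating assay with surface-displayed partners. After mating in shaken culture at 30 °C for 16 h, diploids were selected and their barcode pairs sequenced. Scores were corrected for input abundance and mapped to Kd with protein pairs of known affinity run in the same pool. Mating was done six times.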

Each variant is given by its three heavy chain CDRs, as the data file delimits them; those of the parent are GFTLNSYGIS, VIYSDGRRTFYGDSVK, GRAAGTFDS. The read-out is the apparent dissociation constant on a log10 scale (nM): the lower, the stronger. Replicates are averaged; those with no signal do not enter the mean. A pair that was not seen in any replicate is written "no signal"; this usually means weak binding, but a binder can also be missed. Entries are sorted by rising average, undetected variants last. The authors averaged sequences with at least three values out of six and counted those with two or fewer as poor binders. The range of this assay differs from that of the first round, and the authors advise against merging the two. Three control strains display no target. For all heavy chain designs, 1% of the pairings with them gave a signal, with a median of 2.08 and one signal in twenty below 0.84, so weak values seen in few replicates may be background.

| CDR-H1 | CDR-H2 | CDR-H3 | group | mean, log10 nM | replicates with signal |
|---|---|---|---|---|---|
| GFDLNEYGIS | VIYADGLRTAYIDSVK | GENAGTFDV | En_Gen | -1.07 | 6 of 6 |
| GFDLNEYGIS | VIYADGVRTAYADDVK | GTNAGTFDV | En_Gen | -1.02 | 4 of 6 |
| GFDLNEYGIS | VIYADGRRTVYADSVK | GEAAGTFDV | En_HC | -0.91 | 6 of 6 |
| GFDLNEYGIS | VIYADGMRTFYADSVK | GNIAGTFDV | En_HC | -0.88 | 6 of 6 |
| GFDLNEYGIS | VIYADGLRTSYADSVK | GELAGTFDQ | En_HC | -0.86 | 6 of 6 |
| GFDLNEYGIS | VIYADGMRTQYSDSVK | GEQAGTFDL | En_HC | -0.78 | 1 of 6 |
| GFDLNEYGIS | VIYADGIRTFYADSVK | GNVAGTFDS | En_HC | -0.73 | 6 of 6 |
| GFDLNEYGIS | VIYADGRRTFYTDDVK | GEVAGTFDV | En_HC | -0.65 | 6 of 6 |
| GFDLNEYGIS | VIYADGRRTFYADSVK | GNTAGTFLT | En_HC | -0.42 | 6 of 6 |
| GFDLDEYGIS | VIYADGMRTFYTDSVK | GEAAGTFDV | En_HC | -0.39 | 6 of 6 |
| GFDLESYGIS | VIYADGRRTFYSDSVK | GENAGTFDI | En_HC | -0.25 | 6 of 6 |
| GFDLDEYGIS | VIYADGSRTAYADSVK | GNVAGTFDI | En_Gen | -0.24 | 6 of 6 |
| GFDLDEYGIS | VIYADGRRTFYADSVK | GEVAGTFDA | En_HC | -0.19 | 6 of 6 |
| GFDLNEYGIS | VIYADGKRTAYGDSVK | GTNAGTFDQ | En_HC | -0.16 | 6 of 6 |
| GFDLNEYGIS | VIYADGMRTAYADDVK | GQTAGTFDI | En_Gen | -0.14 | 6 of 6 |
| GFSLNEYGIS | VIYSDGRRTFYGESVK | GRTAGTFDS | GP_Gen | -0.13 | 6 of 6 |
| GFDLEDYGIS | VIYADGMRTAYADSVK | GETAGTFDV | En_Gen | -0.11 | 6 of 6 |
| GFELKSYGIS | VIYADGRRTFYGDSVK | GQAAGTFDS | GPLM_Gibbs | -0.11 | 6 of 6 |
| GFDLNTYGIS | VIYSDGRRTFYKDSVK | GKAAGTFDS | GP_Gibbs | -0.04 | 6 of 6 |
| GFTLNEYGIS | VIYSDGRRTFYSDSVK | GRQAGTFDS | GPLM_HC | 0.01 | 6 of 6 |
| GFNLNEYGIS | VIYADGVRTFYADSVK | GGNAGTFDV | En_HC | 0.01 | 6 of 6 |
| GFTLNSYGIS | VIYSDGRRTFYADDVK | GRVAGTFDS | GPLM_Gen | 0.02 | 6 of 6 |
| GFSLNDYGIS | VIYSDGRRTFYGDSVK | GRQAGTFDT | GP_Gen | 0.05 | 6 of 6 |
| GFDLNEYGIS | VIYADGMRTAYSDKVK | GNVAGTFDM | En_Gen | 0.05 | 6 of 6 |
| GFELNEYGIS | VIYSDGRRTFYTDSVK | GEQAGTFDS | GP_HC | 0.17 | 6 of 6 |
| GFDLNEYGIS | VIYADGMRTVYADSVK | GNTAGTFDV | En_Gen | 0.20 | 5 of 6 |
| GFELNSYGIS | VIYSDGRRTFYGDNVK | GKTAGTFDT | GP_Gibbs | 0.30 | 6 of 6 |
| GFSLNSYGIS | VIYSDGRRTFYKDNVK | GETAGTFDS | GP_Gibbs | 0.33 | 6 of 6 |
| GFDLNSYGIS | VIYSDGRRTFYGDSVK | GRTAGSFDS | GPLM_Gibbs | 0.33 | 6 of 6 |
| GFDLNSYGIS | VIYSDGRRTFYQDSVK | GRVAGTFDI | GP_Gibbs | 0.37 | 6 of 6 |
| GFALNSYGIS | VIYSDGRRTFYQDSVK | GNAAGTFDS | GP_Gen | 0.46 | 4 of 6 |
| GFTLNEYGIS | VIYSDGRRTFYDDSVK | GRWAGTFDS | GP_HC | 0.51 | 6 of 6 |
| GFDLNEYGIS | VIYADGRRTAYANSVK | GENAGTFDV | En_Gen | 0.54 | 6 of 6 |
| GFTLNSYGIS | VIYSDGRRTFYADSVK | GQTAGTFDL | GPLM_Gen | 0.54 | 6 of 6 |
| GFTLNEYGIS | VIYSDGRRTFYGNSVK | GRTAGTFDA | GP_Gibbs | 0.56 | 5 of 6 |
| GFTLNSYGIS | VIYSDGRRTFYDDSVK | GAEAGTFDS | GP_HC | 0.63 | 6 of 6 |
| GFTLNSYGIS | VIYSDGRRTAYIDSVR | GRAAGTFDL | Ctrl | 0.69 | 6 of 6 |
| GFDLNSYGIS | VIYSDGRRTFYADSVK | GWMAGTFDS | GP_Gibbs | 0.71 | 6 of 6 |

Second part, the sequence after the result:

| mean, log10 nM | replicates with signal | CDR-H1 | CDR-H2 | CDR-H3 | group |
|---|---|---|---|---|---|
| 0.95 | 5 of 6 | GFTLEQYGIS | VIYSDGRRTFYADSVK | GRAAGTFDS | GPLM_HC |
| 1.04 | 3 of 6 | HFQLNEYGIS | VIYSDGRRTFYGDSVK | GRQAGTFDS | GPLM_Gibbs |
| 1.06 | 5 of 6 | GFFLNEYGIS | VIYSDGRRTFYGDSVK | GRNAGTFDS | GP_Gen |
| 1.16 | 5 of 6 | GFVLNSYGIS | VIYSDGRRTFYADQVK | GRTAGTFDS | GP_Gibbs |
| 1.38 | 6 of 6 | GFGLNSYGIS | VIYSDGRRTFYADRVK | GWTAGTFDS | GP_Gibbs |
| 1.40 | 5 of 6 | KFDLNSYGIS | VIYSDGRRTFYCDSVK | GKTAGTFDS | GP_Gibbs |
| 1.64 | 5 of 6 | GFELSEYGIS | VIYADGIRTNYSQNVK | GTLAGTFTQ | En_Gibbs |
| 1.65 | 6 of 6 | GFSLNSYGIS | VIYSDGRRTFYADMVK | GEAAGTFDS | GPLM_Gen |
| 1.77 | 2 of 6 | GFWINSYGIS | VIYSDGRRTFYDDSVK | GMAAGTFDS | Ctrl |
| 1.89 | 3 of 6 | GFQLEEYGIS | VIYADGTRTAYLPTVK | GVNGGTFQM | En_Gibbs |
| 2.17 | 1 of 6 | QFTLNSYGIS | VIYSDGRRTFYDDSVK | GRAAGTFDS | Ctrl |
| 2.28 | 1 of 6 | GFTLNEYGIS | VIYSDGRRTFYGDSVK | GRNAGTFMT | GP_HC |
| no signal | 0 of 6 | GFDLDEYGIS | VIYADGHRKSYAADVK | GSVEGVDMV | En_Gibbs |
| no signal | 0 of 6 | GFTINSYGIS | VIYSDGRRVFYGYSVK | GYAAGTFDS | Ctrl |
| no signal | 0 of 6 | GKSLDEYGIS | VIYADGMRTMYADKFK | GKLTAGSFL | En_Gibbs |
| no signal | 0 of 6 | GENLSEYGIS | VIYADGRKTAYSNAVK | GAVGGIFVN | En_Gibbs |
| no signal | 0 of 6 | GFNLDEYGIS | VIYADGRRTAYAESVK | NSVMSGRVT | En_Gibbs |
| no signal | 0 of 6 | GFSLNSYGIS | VIYADGRRTFYGDDVK | GRAAGTFKS | GP_HC |
| no signal | 0 of 6 | GDDIDEYGIS | VIYADGHRKQYSEQVK | GYNAGTLDE | En_Gibbs |
| no signal | 0 of 6 | GFTLNSYGIS | VIYSDGRRTGYGDSVK | GRAAGRFDS | Ctrl |
| no signal | 0 of 6 | GFDINEYGVS | VIYADGKRMAYAWKVK | GKEAGTFIL | En_Gibbs |
| no signal | 0 of 6 | GFDLNSYGYS | VIYSQGRRTFYGDSIK | GRAAGWFNS | Rand |
| no signal | 0 of 6 | GFTFNSYGIS | VIYSDGRRTFYGDSVK | GRLAGTFDS | Ctrl |
| no signal | 0 of 6 | GFKLNSYGIS | VIYSDGKRTFYGDSVK | GRQAGTFDS | GP_Gibbs |
| no signal | 0 of 6 | GFTLNDYGIS | VIYSDGRRTFYDDSVK | GRTAGTFIS | GP_HC |
| no signal | 0 of 6 | GFDLEDYGIS | VIYADGVRTAYSQNSK | GINGVALYI | En_Gibbs |
| no signal | 0 of 6 | GFTLDSYGIS | VIYSDGRRTFYGDSVK | GRVAGTFDT | GPLM_Gen |
| no signal | 0 of 6 | GFTLNDYGIS | VIYSDGRRTFYQDSVK | CRAKGTFDS | Ctrl |
| no signal | 0 of 6 | KFTLNSYGDS | VIYSDGRRTFYDDTVK | GQLAGTFDS | Rand |
| no signal | 0 of 6 | GFTLNDYGIS | VIYSDGRRTFYGDSVK | GRAALTFDE | GPLM_HC |
| no signal | 0 of 6 | GFDLNSYGIS | VIYSDGRRTFYHDSVK | GRAAGCFNS | GP_HC |
| no signal | 0 of 6 | GFLIDEYGIS | VIYADGQRTAYADDVK | GYVGTIGGI | En_Gibbs |
| no signal | 0 of 6 | KFELNSYGIS | VIYSDGRRTFYGDSVK | GKTAGTFDS | GP_Gen |
| no signal | 0 of 6 | GFTLASYGIS | VIYSDGPRTFYGDSVK | GEAAGTFDS | Ctrl |
| no signal | 0 of 6 | QFDLNSYGIS | VIYSDGRRTFYGDSVK | GWDAGTFDS | Ctrl |
| no signal | 0 of 6 | GFDLEEFGIS | VIYADGMRTYYSDAVK | GTFSGLVSV | En_Gibbs |
| no signal | 0 of 6 | GFGLNSYGIT | VIYSDGRRTFYQDSVK | GRAAGTFDS | Ctrl |
| no signal | 0 of 6 | GFTLNDYGIS | VIYSDGRRTFYSDSVK | GRAAGFFTS | GPLM_HC |

Repeated from above, the 6 best binders with a signal in all replicates:

| CDR-H1 | CDR-H2 | CDR-H3 | group | mean, log10 nM | replicates with signal |
|---|---|---|---|---|---|
| GFDLNEYGIS | VIYADGLRTAYIDSVK | GENAGTFDV | En_Gen | -1.07 | 6 of 6 |
| GFDLNEYGIS | VIYADGRRTVYADSVK | GEAAGTFDV | En_HC | -0.91 | 6 of 6 |
| GFDLNEYGIS | VIYADGMRTFYADSVK | GNIAGTFDV | En_HC | -0.88 | 6 of 6 |
| GFDLNEYGIS | VIYADGLRTSYADSVK | GELAGTFDQ | En_HC | -0.86 | 6 of 6 |
| GFDLNEYGIS | VIYADGIRTFYADSVK | GNVAGTFDS | En_HC | -0.73 | 6 of 6 |
| GFDLNEYGIS | VIYADGRRTFYTDDVK | GEVAGTFDV | En_HC | -0.65 | 6 of 6 |

From the AlphaSeq antibody data of Li et al. 2023 (doi:10.1038/s41467-023-39022-2), copy in the FLAb collection.